Read-outs that look alike come from different tables or passages of the source.
Assays:
SaroL-1 [1] = biological target: T1, SaroL-1 (Salpingoeca rosetta, UniProt F2UID9); assay: Isothermal titration calorimetry (MicroCal iTC200) at 25 °C in 20 mM Tris/HCl pH 7.5, 100 mM NaCl, ligand titrated into SaroL-1, one-site model with stoichiometry N fixed to 3.; format: binding
T1 construct: gene PTSG_08235; monomeric in solution
Method: Isothermal Titration Calorimetry (ITC)
ITC experiments were performed with MicroCaliTC200 (Malvern Panalytical). Experiments were carried out at 25 °C ± 0.1 °C. SaroL-1 and ligands samples were prepared in Buffer A. The ITC cell contained SaroL-1 in a concentration range from 0.05 mM to 0.16 mM. The syringe contained the ligand solutions in a concentration from 10 to 50 mM. 2 μL of ligands solutions were injected into the sample cell at intervals of 120 s while stirring at 750 rpm. Integrated heat effects were analysed by nonlinear regression using one site binding model (MicroCal PEAQ-ITC Analysis software). The experimental data were fitted to a theoretical curve, which gave the dissociation constant (Kd) and the enthalpy of binding (∆H).

The chains behind the UniProt entries cited, without tags or fusion partners. Residues count along the entry.
UniProt F2UID9, 1-329: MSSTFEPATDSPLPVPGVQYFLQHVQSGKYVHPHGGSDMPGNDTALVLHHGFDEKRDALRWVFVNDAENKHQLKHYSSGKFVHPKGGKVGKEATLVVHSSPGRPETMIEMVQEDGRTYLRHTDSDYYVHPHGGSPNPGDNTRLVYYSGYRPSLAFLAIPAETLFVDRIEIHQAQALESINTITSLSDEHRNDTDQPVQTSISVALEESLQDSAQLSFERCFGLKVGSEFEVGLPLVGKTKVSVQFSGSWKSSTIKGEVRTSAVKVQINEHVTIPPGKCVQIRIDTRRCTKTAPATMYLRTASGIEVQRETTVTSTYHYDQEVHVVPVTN

SaroL-1 [2] = biological target: T1, SaroL-1; assay: Inhibition of SaroL-1 (217 nM) induced hemolysis of rabbit erythrocytes after 1 h pre-incubation of lectin with sugar at RT, then 1-2 h at 37 °C, absorbance of supernatant at 540 nm.; format: cell-based; details: n = 2
Method: Hemolytic assay (HA) and inhibition of hemolytic activity (IHA)
Both HA and IHA assays were performed in U-shaped 96-well microtiter plates. In both cases, a control negative experiment was performed with Buffer A added to erythrocyte solution (2% final concentration), and the resulting value was subtracted from all data.
IHA was performed in U-shaped 96-well microtiter plates. […] 4% rabbit erythrocytes were added to the mixture in a 1:1 ratio and incubated for 1–2 h at 37 °C. The samples were centrifuged, 2600 × g for 15 min at RT, and the absorbance of the supernatant was measured at 540 nm by a Tecan reader.

Row | Substance | Kd (SaroL-1 [1]) | Kd (SaroL-1 [1]; read-out: Kd) | IC50 (SaroL-1 [2])
1 | βGal1-4Glc (lactose) | 6660 µM | – | –
2 | α-D-galactopyranosyl-(1-4)-D-galactose, terminal disaccharide of globoside Gb3 [αGal1-4Gal] | – | 390 µM | –
3 | αGal1-6Glc (melibiose) | – | 1200 µM | 1500 µM

Reference: paper PMC9468336, “The choanoflagellate pore-forming lectin SaroL-1 punches holes in cancer cells by targeting the tumor-related glycosphingolipid Gb3” (Communications Biology, 2022)
